Results as given in ChEMBL document CHEMBL5316327, “Design and Synthesis of Orally Active Quinolyl Pyrazinamides as Sigma 2 Receptor Ligands for the Treatment of Pancreatic Cancer” (J Med Chem, 2023).

Chains of the proteins cited; added tags and fusions are not shown. Lines headed by an entry give the natural chain unless they say otherwise; changes in a name come on top.
UniProt P18089, whole entry: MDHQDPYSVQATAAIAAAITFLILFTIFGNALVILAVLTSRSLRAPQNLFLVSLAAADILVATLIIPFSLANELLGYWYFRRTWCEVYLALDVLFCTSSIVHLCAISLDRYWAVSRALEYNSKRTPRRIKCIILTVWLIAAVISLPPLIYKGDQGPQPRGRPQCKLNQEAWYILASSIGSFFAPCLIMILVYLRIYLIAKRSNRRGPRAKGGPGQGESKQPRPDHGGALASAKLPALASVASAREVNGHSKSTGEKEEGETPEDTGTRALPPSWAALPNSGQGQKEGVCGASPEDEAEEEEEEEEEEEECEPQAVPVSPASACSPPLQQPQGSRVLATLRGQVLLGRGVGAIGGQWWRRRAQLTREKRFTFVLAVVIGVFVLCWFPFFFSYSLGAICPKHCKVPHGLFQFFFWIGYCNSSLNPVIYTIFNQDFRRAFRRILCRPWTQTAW
UniProt P41145: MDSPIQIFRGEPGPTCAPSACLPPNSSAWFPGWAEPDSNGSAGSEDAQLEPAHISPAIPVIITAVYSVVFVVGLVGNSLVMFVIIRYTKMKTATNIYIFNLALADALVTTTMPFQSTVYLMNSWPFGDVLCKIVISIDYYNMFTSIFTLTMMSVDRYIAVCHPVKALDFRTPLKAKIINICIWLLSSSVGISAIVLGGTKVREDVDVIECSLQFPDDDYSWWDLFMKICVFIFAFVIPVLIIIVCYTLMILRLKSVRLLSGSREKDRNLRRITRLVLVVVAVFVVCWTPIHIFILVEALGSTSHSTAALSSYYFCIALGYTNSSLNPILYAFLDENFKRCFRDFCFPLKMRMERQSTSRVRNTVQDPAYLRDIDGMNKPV
UniProt P47898, whole entry: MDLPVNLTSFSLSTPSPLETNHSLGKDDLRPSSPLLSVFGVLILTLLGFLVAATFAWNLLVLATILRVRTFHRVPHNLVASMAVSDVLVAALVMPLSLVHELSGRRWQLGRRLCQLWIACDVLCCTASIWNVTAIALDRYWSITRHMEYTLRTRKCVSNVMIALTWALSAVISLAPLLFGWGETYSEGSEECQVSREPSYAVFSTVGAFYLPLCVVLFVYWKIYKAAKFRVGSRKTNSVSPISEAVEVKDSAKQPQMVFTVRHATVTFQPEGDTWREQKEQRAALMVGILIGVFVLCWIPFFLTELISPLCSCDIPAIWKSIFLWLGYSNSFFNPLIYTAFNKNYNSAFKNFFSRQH

Tests used:
[1] = target: Alpha-2B adrenergic receptor (Homo sapiens, UniProt P18089); experiment: Binding affinity to alpha2B receptor (unknown origin) assessed as inhibition constant
[2] = target: Kappa-type opioid receptor (Homo sapiens, UniProt P41145); experiment: Binding affinity to KOR receptor (unknown origin) assessed as inhibition constant
[3] = target: 5-hydroxytryptamine receptor 5A (Homo sapiens, UniProt P47898); experiment: Binding affinity to 5-HT5A receptor (unknown origin) assessed as inhibition constant

Ki [1]: 1.13 µM
Ki [2]: 1.11 µM
Ki [3]: 1.18 µM
SMILES: CCN(CC)CCCC(C)Nc1cnc(C(=O)Nc2ccc(Cl)c3cccnc23)cn1 (stereo not drawn)
